# System: CD8-EGFR
# Test: Western blot of CD8-EGFR phosphorylation in SKMG3-CD8-EGFR cells
# Type: cell-based, human
# Settings: SKMG3 cells with stable expression of the CD8-EGFR
# Experimental: The CD8 cDNA was a gift from Paula Kavathas (Yale University). The CD8-EGFR was constructed according to a strategy that generated a constitutively active IGF-1R (24). The extracellular domain of CD8 was PCR amplified with a 5′ XbaI and 3′ SalI restriction site and cloned in-frame with the intracellular kinase domain of EGFR using the pDCB5-EGFR plasmid. SKMG3-CD8-EGFR cells were generated by Lipofectamine (Life Technologies) transfection of the plasmid followed by selection with 500 μg/ml G418.
substance,measurement,value
cetuximab: an antibody that recognizes the EGFR extracellular domain [reference compound],"CD8-EGFR phosphorylation (phospho-Y1068, phospho-Y845)",insensitive
